How the values were obtained:
[1] = tested on: ACE; assay: ACE-inhibition assay 2: modified Matsui assay; format: biochemical; details: substrate Hip-His-Leu, pH 8.3, 37° C., 30 min
Description: This ACE inhibition activity was assayed according to the method of Matsui et al. (Matsui, T. et al. (1992) Biosci. Biotech. Biochem. 56: 517-518) with the modifications described below.
For each sample 75 μl 3 mM hippuryl histidine leucine (Hip-His-Leu, Sigma chemicals Co.; the chemical was dissolved in 250 mM Borate containing 200 mM NaCl, pH 8.3); 20 μl 0.1 U/ml ACE (obtained at Sigma) or H2O, and 25 μl sample or H2O were mixed (see Table 1). The mixtures were incubated at 37° C. and stopped after 30 min by adding 125 μl 0.5 M HCl. Subsequently, 225 μl bicine/NaOH solution (1 M NaOH:0.25 M bicine (4:6)) was added, followed by 25 μl 0.1 M TNBS (2,4,6-Trinitrobenzenesulfonic acid, Fluka, Switzerland; in 0.1 M Na2HPO4). After incubation for 20 min. at 37° C., 4 ml 4 mM Na2SO3 in 0.2 M NaH2PO4 was added and the absorbance at 416 nm was measured with UV/Vis spectrophotometer (Shimadzu UV-1601 with a CPS controller, Netherlands).
The amount of ACE inhibition (ACEI) activity was calculated as a percentage of inhibition compared with the conversion rate of ACE in the absence of an inhibitor: ACEI (%)=(((C1−C2)−(S1−S2))/(C1−C2))*100 (1)
C1=Absorbance without ACE inhibitory component (=max. ACE activity) [AU].
C2=Absorbance without ACE inhibitory component and without ACE (background) [AU].
S1=Absorbance in the presence of ACE and the ACE inhibitory component [AU].
S2=Absorbance in the presence of the ACE inhibitory component, but without ACE [AU].

Sequences of proteins named here, by UniProt entry; tags and fusion partners are left off. Residues count along the entry.
UniProt P12821, 30-1306, species assumed: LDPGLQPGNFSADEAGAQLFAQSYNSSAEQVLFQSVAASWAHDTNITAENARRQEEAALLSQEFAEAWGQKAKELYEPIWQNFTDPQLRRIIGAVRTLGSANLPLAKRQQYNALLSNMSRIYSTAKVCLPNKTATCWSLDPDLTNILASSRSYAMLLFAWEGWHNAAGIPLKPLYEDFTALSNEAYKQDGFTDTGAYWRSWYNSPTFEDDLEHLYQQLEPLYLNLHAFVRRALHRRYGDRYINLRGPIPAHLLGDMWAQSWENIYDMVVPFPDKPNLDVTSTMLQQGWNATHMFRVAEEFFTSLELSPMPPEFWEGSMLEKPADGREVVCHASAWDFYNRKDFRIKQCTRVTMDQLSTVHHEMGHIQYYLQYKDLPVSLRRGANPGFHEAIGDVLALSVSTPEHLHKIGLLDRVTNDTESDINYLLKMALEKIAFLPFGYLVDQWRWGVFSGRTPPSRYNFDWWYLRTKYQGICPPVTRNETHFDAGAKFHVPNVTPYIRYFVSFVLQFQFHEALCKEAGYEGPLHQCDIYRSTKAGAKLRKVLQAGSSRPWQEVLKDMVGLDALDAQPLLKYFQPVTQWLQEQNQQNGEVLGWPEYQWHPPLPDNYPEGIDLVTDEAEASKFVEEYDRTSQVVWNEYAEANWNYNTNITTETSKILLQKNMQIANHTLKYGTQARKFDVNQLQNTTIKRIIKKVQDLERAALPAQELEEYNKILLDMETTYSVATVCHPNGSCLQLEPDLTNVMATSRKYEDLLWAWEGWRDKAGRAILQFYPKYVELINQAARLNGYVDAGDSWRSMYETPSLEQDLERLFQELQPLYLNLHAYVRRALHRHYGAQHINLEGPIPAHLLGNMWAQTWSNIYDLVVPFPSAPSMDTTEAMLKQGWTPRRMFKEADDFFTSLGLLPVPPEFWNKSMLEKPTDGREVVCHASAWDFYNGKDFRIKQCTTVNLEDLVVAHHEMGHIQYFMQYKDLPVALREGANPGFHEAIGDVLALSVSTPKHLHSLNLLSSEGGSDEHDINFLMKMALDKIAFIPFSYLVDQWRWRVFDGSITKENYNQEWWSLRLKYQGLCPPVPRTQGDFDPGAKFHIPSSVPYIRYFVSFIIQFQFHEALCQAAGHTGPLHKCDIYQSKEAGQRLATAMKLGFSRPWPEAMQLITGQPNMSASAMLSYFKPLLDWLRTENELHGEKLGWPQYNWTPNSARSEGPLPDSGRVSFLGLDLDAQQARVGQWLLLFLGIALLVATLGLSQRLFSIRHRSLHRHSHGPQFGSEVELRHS

[2] = biological target: ACE (Homo sapiens, UniProt P12821); assay: ACE-inhibition assay 1: enzyme based assay (EBA); format: biochemical; details: substrate Abz-FRK-(Dnp)P-OH, pH 7.0, fluorescence
Description: ACE and a synthetic substrate (Abz-FRK-(Dnp)P-OH) were used in the ACE-inhibition assay performed in white optiplate-96 microplates (Packard Bioscience). The substrate was a kind gift of Adriana K. Carmona (Dept. of Biophysics, Escola Paulista de Medivina, Universidae Federal de Sao Paulo, Brazil). Stock solutions of Abz-FRK-(Dnp)P-OH were prepared in DMSO. […] The assay buffer composition was 100 mM tris/HCl buffer pH 7.0 containing 100 mM NaCl. Forty μl sample solution in assay buffer was added to each well. In case of the controls only buffer was added. The samples were measured in threefold in a fluorophotometer (Fluostar, BMG labtechnologies). […] The ACE activity was measured for 10 cycles (about 10 minutes) by measuring the fluorescence at λex=320 nm and ξem=420 nm. The raw data was converted to the slope/sec and the ACE inhibition activity was calculated using the equation below. ACE inhibition (%)=[1−(Smean−Bmean)/(Cmean−Bmean)]*100
Bmean=average result of background (substrate)

SMILES	IC50 [1]	IC50 [2]
CC[C@H](C)[C@H](N)C(=O)N[C@H](C(=O)N[C@@H](C)C(=O)N[C@@H](CCC(=O)O)C(=O)N[C@@H](CCCCN)C(=O)O)[C@@H](C)CC [IIAEK]	> 20 µM	–
CC[C@H](C)[C@H](N)C(=O)N[C@H](C(=O)N1CCC[C@H]1C(=O)O)[C@@H](C)O [ITP]	10 µM	30 µM
CC(C)C[C@H](NC(=O)[C@@H]1CCCN1C(=O)[C@H](CC(C)C)NC(=O)[C@@H](N)Cc1c[nH]cn1)C(=O)N1CCC[C@H]1C(=O)O [HLPLP]	17 µM	15 µM
CC[C@H](C)[C@H](N)C(=O)N1CCC[C@H]1C(=O)N1CCC[C@H]1C(=O)O [IPP]	2 µM	12 µM

Continued, values first:

IC50 [1]	IC50 [2]	SMILES
> 50 µM	75 µM	N[C@@H](CO)C(=O)N1CCC[C@H]1C(=O)N1CCC[C@H]1C(=O)O [SPP]
3 µM	20 µM	CC(C)[C@H](N)C(=O)N1CCC[C@H]1C(=O)N1CCC[C@H]1C(=O)O [VPP]
